Reference: patent US11180484B2, “Pyrazole derivatives as plasma kallikrein inhibitors” (KALVISTA PHARMACEUTICALS LIMITED, priority 2016, dated 2021)

By UniProt entry, the sequences of proteins in these tests, tags left out. Residues count along the entry.
UniProt P00748, 373-615 limits assumed: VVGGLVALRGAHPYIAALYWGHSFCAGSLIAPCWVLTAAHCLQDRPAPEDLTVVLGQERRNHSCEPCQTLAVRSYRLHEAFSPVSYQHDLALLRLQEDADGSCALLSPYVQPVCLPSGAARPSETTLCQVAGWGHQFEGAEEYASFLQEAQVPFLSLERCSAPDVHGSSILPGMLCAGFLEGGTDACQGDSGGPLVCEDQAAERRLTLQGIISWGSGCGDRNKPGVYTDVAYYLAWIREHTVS
UniProt P03951, 19-387 limits assumed: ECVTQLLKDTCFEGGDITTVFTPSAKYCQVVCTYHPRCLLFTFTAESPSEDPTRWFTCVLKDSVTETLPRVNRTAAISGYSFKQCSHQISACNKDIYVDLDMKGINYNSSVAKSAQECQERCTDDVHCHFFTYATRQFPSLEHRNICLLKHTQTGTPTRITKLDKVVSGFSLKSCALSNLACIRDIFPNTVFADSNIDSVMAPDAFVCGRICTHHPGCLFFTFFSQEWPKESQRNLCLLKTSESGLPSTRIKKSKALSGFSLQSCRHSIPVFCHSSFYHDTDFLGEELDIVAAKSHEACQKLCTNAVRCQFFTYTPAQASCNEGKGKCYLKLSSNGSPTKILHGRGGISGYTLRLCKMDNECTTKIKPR
UniProt P03951, 388-625 limits assumed: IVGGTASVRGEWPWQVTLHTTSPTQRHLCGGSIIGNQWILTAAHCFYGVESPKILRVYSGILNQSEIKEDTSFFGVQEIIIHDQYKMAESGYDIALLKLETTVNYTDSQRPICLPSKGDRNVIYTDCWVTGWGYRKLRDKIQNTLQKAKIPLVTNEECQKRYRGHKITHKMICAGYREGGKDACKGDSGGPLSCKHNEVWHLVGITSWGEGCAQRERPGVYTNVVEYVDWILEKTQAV
UniProt P06870, 25-262 limits assumed: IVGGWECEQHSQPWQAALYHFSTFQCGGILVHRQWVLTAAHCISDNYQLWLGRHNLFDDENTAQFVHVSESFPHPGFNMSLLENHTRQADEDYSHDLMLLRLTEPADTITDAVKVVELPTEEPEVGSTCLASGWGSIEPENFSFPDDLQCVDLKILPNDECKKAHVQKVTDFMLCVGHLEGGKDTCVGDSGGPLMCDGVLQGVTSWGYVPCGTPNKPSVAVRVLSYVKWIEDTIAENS
UniProt P03952, 20-390 limits assumed: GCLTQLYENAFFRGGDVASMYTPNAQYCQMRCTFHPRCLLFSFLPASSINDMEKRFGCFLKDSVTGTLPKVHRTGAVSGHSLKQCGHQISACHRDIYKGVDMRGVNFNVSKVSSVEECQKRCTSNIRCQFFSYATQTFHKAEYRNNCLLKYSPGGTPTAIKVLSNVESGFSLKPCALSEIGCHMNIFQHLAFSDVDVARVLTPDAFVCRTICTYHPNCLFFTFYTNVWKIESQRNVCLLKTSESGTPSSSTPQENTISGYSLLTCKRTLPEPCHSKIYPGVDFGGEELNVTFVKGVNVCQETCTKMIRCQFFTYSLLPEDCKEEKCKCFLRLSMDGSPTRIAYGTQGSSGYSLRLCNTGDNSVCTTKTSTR
UniProt P03952, 391-638 limits assumed: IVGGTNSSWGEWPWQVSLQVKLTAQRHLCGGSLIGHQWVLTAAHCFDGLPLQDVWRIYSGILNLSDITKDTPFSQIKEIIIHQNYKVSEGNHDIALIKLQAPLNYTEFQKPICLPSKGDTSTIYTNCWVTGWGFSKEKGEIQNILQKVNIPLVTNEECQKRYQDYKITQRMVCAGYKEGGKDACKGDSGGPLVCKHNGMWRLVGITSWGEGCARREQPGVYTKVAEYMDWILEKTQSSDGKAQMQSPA

Experiments:
[1] = Intrinsic clearance in rat liver microsomes; settings: rat liver microsomes 0.5 mg/mL, 5 μM test compound, 37° C.
Human Factor XIIa = Human Factor XIIa (Homo sapiens (Human), UniProt P00748); test: Factor XIIa inhibitory activity in vitro; settings: read-out: IC50 (human FXIIa); 25° C., substrate H-DPro-Phe-Arg-AFC
Human FXIa = Human FXIa (Homo sapiens (Human), UniProt P03951); test: Determination of the % inhibition / IC50 for FXIa; format: biochemical; settings: read-out: IC50 (human FXIa); 25° C., substrate Z-Gly-Pro-Arg-AFC
Description: FXIa inhibitory activity in vitro was determined using standard published methods (see e.g. Johansen et al., Int. J. Tiss. Reac. 1986, 8, 185; Shori et al., Biochem. Pharmacol., 1992, 43, 1209; Sturzebecher et al., Biol. Chem. Hoppe-Seyler, 1992, 373, 1025). […]

Human KLK1 = Human KLK1 (Homo sapiens (Human), UniProt P06870); test: Determination of the IC50 for KLK1; format: biochemical; settings: read-out: IC50 (human KLK1); 25° C., substrate H-DVal-Leu-Arg-AFC
[2] = Intrinsic clearance in human liver microsomes; format: in vitro ADME; settings: human liver microsomes 0.5 mg/mL, 5 μM test compound, 37° C.
Caco-2 monolayers = test: In vitro permeability, Caco-2 model for oral absorption; format: in vitro ADME; settings: apical to basolateral, 50 μM test compound, 1 hour, 37° C.
Description: In vitro permeability was determined using the Caco-2 model for oral absorption. The methodology was adapted from standard published methods (Wang Z, Hop C. E., Leung K. H. and Pang J. (2000) J Mass Spectrom 35(1); 71-76). The Caco-2 monolayers were established in a Biocoat™ HTS fibrillar collagen 24 well multiwell insert system (1.0 μm, PET membrane, Corning 354803) in which 200,000 cells were seeded into each insert and maintained over 3 days before being utilised in the permeability assay. For the assay, 50 μM test compound is added to the apical side of the inserts and incubated for 1 hour at 37° C. on a shaking platform (120 rpm). Apical to basolateral transport was determined by measuring the test article in both compartments by LCMS following the 1 hour incubation. The integrity of the Caco-2 monolayers was confirmed by two methods, (i) comparison of pre- and post-experiment transepithelial electrical resistance (TEER) and, (ii) assessment of Lucifer Yellow flux.

Human plasma kallikrein = Human plasma kallikrein (Homo sapiens (Human), UniProt P03952); test: Determination of the IC50 for plasma kallikrein; format: biochemical; settings: read-out: IC50 (human PKal); 25° C., substrate H-DPro-Phe-Arg-AFC

| rat liver microsome (Clint μL/min/mg protein) [1] [μL/min/mg protein] | IC50 (Human Factor XIIa) [µM] | IC50 (Human FXIa) [µM] | IC50 (Human KLK1) [µM] | Human liver microsome (Clint μL/min/mg protein) [2] [μL/min/mg protein] | Caco-2 (Papp ×10^−6 cm/s) (Caco-2 monolayers) | IC50 (Human plasma kallikrein) [µM] | SMILES |
| --- | --- | --- | --- | --- | --- | --- | --- |
| 62 | > 40 | > 40 | > 40 | 58 | 8 ×10^−6 cm/s | 2.03 | O=C(NCc1cccc(Cl)c1)c1cnn(Cc2ccc(Cn3cccn3)cc2)c1 |
| 72 | > 40 | > 40 | > 40 | 71 | 7 ×10^−6 cm/s | 0.731 | O=C(NCc1cccc(Cl)c1F)c1cnn(Cc2ccc(Cn3cccn3)cc2)c1 |
